The chains behind the UniProt entries cited, without tags or fusion partners. Residues count along the entry.
UniProt P05067, 672-713 limits assumed: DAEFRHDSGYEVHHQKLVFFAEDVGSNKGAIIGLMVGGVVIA

In US11718596B2, “Amyloid targeting agents and methods of using the same” (The Regents of the University of California, priority 2014, dated 2023):

Target: amyloid deposits in the retina (Homo sapiens, UniProt P05067)
Experiment: Ex vivo retina analysis of J20 mice after systemic (tail vein) dosing
Conditions: J20 mouse, 30 minutes prior to sacrifice, co-localizes with anti-Aβ antibody

SMILES: COCCOCCOCCNC(=O)/C(C#N)=C/c1ccc2cc(N3CCCCC3)ccc2c1 [Compound 1, (E)-2-Cyano-N-(2-(2-(2-methoxyethoxy)ethoxy)ethyl)-3-(6-(piperidin-1-yl)naphthalen-2-yl)acrylamide]
- staining of amyloids in the retina after in vivo systemic administration: specifically stain amyloids in the retina
